{"source": "patent US20060003399", "proteins": {"B1": {"name": "GST-tev-Cdc42 (protein)", "chain": "MSPILGYWKIKGLVQPTRLLLEYLEEKYEEHLYERDEGDKWRNKKFELGLEFPNLPYYIDGDVKLTQSMAIIRYIADKHNMLGGCPKERAEISMLEGAVLDIRYGVSRIAYSKDFETLKVDFLSKLPEMLKMFEDRLCHKTYLNGDHVTHPDFMLYDALDVVLYMDPMCLDAFPKLVCFKKRIEAIPQIDKYLKSSKYIAWPLQGWQATFGGGDHPPKSDLVPRPWSNQTSLYKKAGFENLYFQGQTIKCVVVGDVAVGKTCLLISYTTNKFPSEYVPTVFDNYAVTVMIGGEPYTLGLFDTAGQEDYDRLRPLSYPQTDVFLVCFSVVSPSSFENVKEKWVPEITHHCPKTPFLLVGTQIDLRDDPSTIEKLAKNKQKPITPETAEKLARDLKAVKYVECSALTQRGLKNVFDEAILAALEPPETQPKRKCCIF"}}, "key": {"[1]": {"molecular_target": "Full length human N-WASP, TAP-tagged at the C-terminus (Myc-N-WASP-TAP)"}, "[2]": {"molecular_target": "Full length human WASP, TAP-tagged at the C-terminus (Myc-WASP-TAP)"}}}
{"protein": "B1", "values": [{"measurement": "Barbed ends", "setting": "[1]", "result": 1.3, "unit": "nM"}, {"measurement": "Barbed ends % of max.", "setting": "[1]", "result": 9, "unit": "%"}, {"measurement": "acceleration of actin polymerization", "setting": "[1]", "result": "the upstream regulators or activators Cdc42 or Nck1 accelerated actin polymerization 13-fold"}, {"measurement": "Barbed ends", "setting": "[2]", "result": 3.8, "unit": "nM"}, {"measurement": "Barbed ends % of max.", "setting": "[2]", "result": 87, "unit": "%"}, {"measurement": "acceleration of actin polymerization", "setting": "[2]", "result": "the upstream regulators or activators Cdc42 or Nck1 accelerated actin polymerization 13-fold"}]}
